Data set [1] deals with T1, gastrin-releasing peptide receptor (GRPR) (Homo sapiens, UniProt P30550).
T1 construct: host or cells: PC-3 (human prostate adenocarcinoma) cells
Nature of the data set: LigandTracer real-time binding affinity and kinetics in PC-3 cells. The procedure: For [^177Lu]-Lu-LF1 and ligand–receptor interaction kinetics, 3 × 10^6 PC-3 cells were seeded (supplementary data, Table S5). The association measurements were initiated with [^177Lu]-Lu-LF1 at a final concentration of 1 nM. […] At that point, the radioligand-containing medium was replaced with fresh complete medium to initiate the dissociation phase. All measurements were performed in triplicate. […] page 4: within 10 min at room temperature (r.t.). The quality control of the radiolabeling mixture was performed by radio thin-layer chromatography (TLC) and High-Performance Liquid Chromatography (HPLC) analysis, as described with details in the supplementary data. For the radiolabeling procedures involving high levels of radioactivity, ascorbic acid was added to the [177Lu]Lu-LF1 radiolabeling mixture immediately after completion of the radiolabeling, to a final concentration of 20 µg/µL, in order to prevent autoradiolysis. […] Cells were suspended in 4-5 mL of complete medium and seeded in one part of a 10 cm plastic petri dish, while keeping the dish in an angle. The day of the experiment, supernatant was aspirated and the dish was washed gently with 4 mL of media and the liquid was removed by aspiration. Next, 8-10 mL of complete media were introduced and the dish with the cells was left to incubate at 37 °C for 0.5-1 h. Then, the medium was removed and the cells were placed in the holder of a LigandTracer White or Grey (Ridgeview Instruments AB, Uppsala, Sweden). New media (3 mL) were introduced and background measurements were conducted for approximately 20-30 min, then the measurements of the kinetics were performed as stated in the “Materials and Methods” section of the manuscript. […] Blood was immediately transferred to pre-chilled heparinized tubes and centrifuged (5 min, 1700 g, 4 °C) for plasma isolation. […] After careful separation of the two phases (precipitated proteins and supernatant), the respective activities were measured in a γ-counter to determine the percentage of the radiotracer S4

Protein sequences, listed by entry. Tags and fused reporters are not part of them. Lines headed by an entry give the natural chain unless they say otherwise; changes in a name come on top.
UniProt P30550: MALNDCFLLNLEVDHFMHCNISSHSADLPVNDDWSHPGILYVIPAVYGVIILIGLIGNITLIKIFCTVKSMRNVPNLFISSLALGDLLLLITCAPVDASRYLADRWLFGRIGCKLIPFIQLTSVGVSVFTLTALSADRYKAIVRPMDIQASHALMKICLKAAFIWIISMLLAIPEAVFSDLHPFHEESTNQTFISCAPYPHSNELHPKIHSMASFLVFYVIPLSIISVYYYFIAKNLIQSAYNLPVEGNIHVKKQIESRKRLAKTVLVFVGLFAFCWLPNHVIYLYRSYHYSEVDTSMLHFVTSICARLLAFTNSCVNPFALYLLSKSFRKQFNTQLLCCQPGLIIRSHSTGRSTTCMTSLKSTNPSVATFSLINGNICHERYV

In another data set the test system is PC-3 tumors. Briefly: Biodistribution in PC-3 tumor-bearing mice. Format: in vivo, mouse. The procedure: Male athymic Balb/C nude mice (6 weeks old, 20–25 g; RRID:IMSR_JAX:002019) were subcutaneously implanted with PC-3 cells (3 × 10^6 in 100 μL PBS) into the right shoulder. Once tumors reached 250–300 mm^3 (18–20 days postimplantation), mice were used for biodistribution and SPECT/CT imaging. For all studies, mice were randomly grouped to ensure similar tumor size distribution. All procedures were approved by local authorities and conducted in accordance with institutional guidelines (license BE63/2021; 33892).
At 1, 4, 24, 48, 72, 96, and 144 h postinjection, animals were euthanized with an overdose of pentobarbital sodium (150 mg/kg i.p.). Selected organs were collected, weighed, and measured for radioactivity using a γ-counter. Biodistribution is expressed as % injected activity per gram (% IA/g, mean ± SD; n = 3–4). For specificity assessment, blocking studies (n = 3) were conducted by coinjecting [^177Lu]-Lu-LF1 with 20 nmol of H-D-Phe-Gln-Trp-Ala-Val-Gly-His-Sta-Leu-NH2; biodistribution was assessed at 4 h p.i..

For data set [2] the following is noted: mouse, in vivo. The procedure: The quality control of the radiolabeling mixture was performed by radio thin-layer chromatography (TLC) and High-Performance Liquid Chromatography (HPLC) analysis, as described with details in the supplementary data. For the radiolabeling procedures involving high levels of radioactivity, ascorbic acid was added to the [177Lu]Lu-LF1 radiolabeling mixture immediately after completion of the radiolabeling, to a final concentration of 20 µg/µL, in order to prevent autoradiolysis. […] Cells were suspended in 4-5 mL of complete medium and seeded in one part of a 10 cm plastic petri dish, while keeping the dish in an angle. The day of the experiment, supernatant was aspirated and the dish was washed gently with 4 mL of media and the liquid was removed by aspiration. Next, 8-10 mL of complete media were introduced and the dish with the cells was left to incubate at 37 °C for 0.5-1 h. Then, the medium was removed and the cells were placed in the holder of a LigandTracer White or Grey (Ridgeview Instruments AB, Uppsala, Sweden). […] After careful separation of the two phases (precipitated proteins and supernatant), the respective activities were measured in a γ-counter to determine the percentage of the radiotracer S4

Data set [3] can be described thus: Area under the time-activity curves (AUC). The note with it: mouse, in vivo. How it is done:
The area under the time-activity curves (AUC) in the tumor, blood, pancreas and kidneys were calculated from the noncorrected biodistribution data using GraphPad Prism. The results of AUC are expressed as % IA/g × h and presented as mean values ± SD (n = 3) (supplementary data: Table S7).

What is called Kd is a measure of binding affinity in units of concentration. Consider “[177Lu]Lu-LF1: GRPR antagonist LF1 (AAZTA^5-Pip-D-Phe-Gln-Trp-Ala-Val-Gly-His-Sta-Leu-NH2) radiolabeled with lutetium-177 (FQWAVGH; AAZTA5-Pip, Sta-Leu-NH2, 177Lu; printed: Phe-Gln-Trp-Ala-Val-Gly-His-)”, for which the “association rate constant (Kon)” value in data set [1] was 2.5 × 10^5 ± 0.2 × 10^5 M^–1s^–1. Moreover, the “dissociation rate constant (Koff)” value in data set [1] is listed as 3.2 × 10^–5 ± 0.1 × 10^–5 s^–1. Also, the equilibrium dissociation constant (Kd) in data set [1] (1-1 interaction model) was 0.1 nM. For the same substance, the tumor/kidney ratio is recorded as 5.9 ± 0.3 in the data set with PC-3 tumors (1 h p.i.); 8.8 ± 0.8 in the data set with PC-3 tumors (4 h p.i.); 10 ± 1.0 in the data set with PC-3 tumors (24 h p.i.); 11 ± 1.8 in the data set with PC-3 tumors (48 h p.i.); 9.9 ± 1.8 with PC-3 tumors (72 h p.i.); 6.1 ± 0.0 in the data set on PC-3 tumors (96 h p.i.). Also, in the data set on PC-3 tumors (144 h p.i.), the tumor/kidney ratio is 4.9 ± 0.2. The Tumor-to-pancreas ratio in the data set with PC-3 tumors (mouse, in vivo) is recorded as > 20. Also, the “activity bound to murine plasma proteins” value in data set [2] was 3.2%. In addition, the “Blood, individual mice” value in data set [3] was determined as 0.12 %IA/g. For the same substance, in data set [3], the “tumor AUC relative to pancreas or kidneys” value is “about 5 times”.

Values taken from paper PMC12797171, “Preclinical Evaluation of a ^177Lu-Labeled Gastrin-Releasing Peptide Receptor Antagonist and Prostate Cancer Treatment with Monotherapy and in Combination with Everolimus” (ACS Pharmacology & Translational Science, 2025).
